{"source": "patent US6258807A", "about": "“Method for treating pain” (Eli Lilly and Company, priority 1997, dated 2001)", "key": {"[1]": {"system": "acetic acid-induced writhing in mice", "settings": "oral doses of 1, 3, and 10 mg/kg, about 60 minutes before 0.5% acetic acid intraperitoneal"}, "[2]": {"system": "tail flick latency in mice", "settings": "oral 1, 3, and 10 mg/kg, about 60 minutes after administration"}}, "data": [{"smiles": "Cc1cc2c(s1)Nc1ccccc1N=C2N1CCN(C)CC1", "note": "[olanzapine, 2-methyl-4-(4-methyl-1-piperazinyl)-10H-thieno[2,3-b][1,5] benzodiazepine]", "values": [{"measurement": "analgesic effect, acetic acid-induced writhing (number of writhes) compared to controls", "setting": "[1]", "result": "significant analgesic effect"}, {"measurement": "tail flick latency with respect to control latencies", "setting": "[2]", "result": "significant increases in tail flick latencies"}]}]}
